Assay results: PubChem BioAssay AID743398 (Broad Institute, 2014)
The list shows a part of the results, in another mix than the full data. Activity calls are given as the source filed them. No stated cut-off is given here; in the data, active means activation above about 30% (passing the limit was not always enough); inconclusive means no clear call, values can overlap the other calls.

experiment: activation of beta-catenin signaling reporter – cell-based, plate reader, single point, primary screen (AID 743398); conditions: Wnt/beta-catenin reporter cell assay, activator, at 9.35 µM, stronger effect = higher value;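 further: 0% = neutral control wells and 100% = positive control wells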

SMILES | activation
CCOC(=O)Nc1cccc([As](=O)(O)O)c1 | inactive: 0.323%
O=[N+]([O-])c1ccc(Nc2ccc(Oc3ccc([N+](=O)[O-])cc3[N+](=O)[O-])cc2)c([N+](=O)[O-])c1 | inactive: -1.29%
Cc1cc(SC(NC=O)C(Cl)(Cl)Cl)ncn1 (centres undefined) | inactive: 0.805%
O=P(Nc1ccccn1)(c1cccc2ccccc12)c1cccc2ccccc12 | inactive: -13.8%
CC1CCNP(=O)(N(CCCl)CCCl)O1 (centres undefined) | inactive: 2.2%
O=C(O)C(O)c1ccc(N(CCCl)CCCl)cc1 (centres undefined) | inactive: -7.66%
CCOC(=O)Nc1ccc([As](=O)(O)O)c(O)c1 | inactive: -0.665%
CCCCOc1ccc(C(=O)NCC2(N3CCCCC3)CCCCC2)cc1OC | inactive: -2.17%
Cc1cc(SC(NC(=O)c2ccccc2)C(Cl)(Cl)Cl)nc(C(C)C)n1 (centres undefined) | inactive: 4.65%
COP(=O)(OC)N1CC1c1ccccc1 (centres undefined) | inactive: -0.671%
CCOC(=O)c1ccc(NC(=O)C(C)(CCl)SC)cc1 (centres undefined) | inactive: 0.924%
O=C(OC1CN2CCC1CC2)c1cccc([N+](=O)[O-])c1 (centres undefined) | inactive: 19.3%
CCC(C)N(CC(C)C)C(=S)SC(NC(C)=O)C(Cl)(Cl)Cl (centres undefined) | inactive: -0.0625%
COP1(=S)c2c(C)nn(CCC#N)c2N=C(c2ccc(F)cc2)N1C (centres undefined) | inactive: -3.14%
COC(=O)C1(C)COP(=O)(N2CCCC2)OC1 (centres undefined) | inactive: -1.29%
O=C(COc1ccccc1)OC1CN2CCC1CC2 (centres undefined) | inactive: -0.964%
O=C(Nc1ccncc1[N+](=O)[O-])c1ccc([N+](=O)[O-])cc1[N+](=O)[O-] | inactive: -0.625%
O=C(O)C(=O)c1ccc(N(CCCl)CCCl)cc1 | inactive: -4.53%
COc1ccc(N/C(=N/P(=O)(N2CCOCC2)N2CCOCC2)N2CCOCC2)cc1 | inactive: -0.909%
O=[N+]([O-])c1cc(Oc2ccc([N+](=O)[O-])cc2C(F)(F)F)cc([N+](=O)[O-])c1 | inactive: -0.358%
O=C(OC1CN2CCC1CC2)C12CC3CC(CC(C3)C1)C2 (centres undefined) | inactive: -0.451%
Cc1cc(=O)[nH]c(N[N+](=O)[O-])n1 | inactive: 1.35%
Cc1c2c(nc3ccccc13)SC(C(Cl)Cl)C2 (centres undefined) | inactive: -5.52%
COc1ccc2nc(NP(=O)(c3ccccc3)c3ccccc3)sc2c1 | inactive: -5.36%
COc1cc(I)ccc1[As](=O)(O)O | inactive: -0.745%

SMILES | activation
O=P1(N(CCCl)CCCl)OCCCN1CCCl (centres undefined) | inactive: -1.82%
O=P1(N(CCCl)CCCl)Nc2ccccc2N1 | active: 41.6%
COC(=O)C1(C)COP(=O)(N2CCCCCC2)OC1 (centres undefined) | inactive: 5.82%
CC(C)c1ccc(OP(=O)(Nc2ccccn2)Oc2ccccc2F)cc1 (centres undefined) | inactive: -3.41%
ClCCSc1nnc(-c2cccnc2)o1 | inactive: 12.4%
CC(C)NC(=O)NP(=O)(Oc1ccccc1)Oc1ccccc1 | inactive: 0.2%
O=C(OC1CN2CCC1CC2)c1cccc2[nH]cnc12 (centres undefined) | inactive: 1.2%
O=[As](O)(c1ccc(O)cc1)c1ccccc1O | inactive: 0.712%
C[As](=O)(O)c1cccc(C(=O)O)c1 | inactive: -1.09%
O=[N+]([O-])c1ccc(-c2cc([N+](=O)[O-])c(O)c([N+](=O)[O-])c2)cc1 | inactive: -0.003%
COc1cc(C(=O)NCC2(N3CCOCC3)CCCCC2)ccc1OCC(C)C | inactive: 1.42%
Cc1ccc2nc3c(c(C)c2c1)CC(C(Cl)Cl)S3 (centres undefined) | inactive: 16.3%
Cc1ccc(OP(=O)(Nc2ccc([N+](=O)[O-])cn2)Oc2ccc(C)cc2)cc1 | inactive: -3.17%
[N-]=[N+]=NC1CCCCC1NC(=O)c1cc([N+](=O)[O-])cc([N+](=O)[O-])c1 (centres undefined) | inactive: 4.71%
NC(=O)Nc1ccc([As](=O)(O)O)cc1 | inactive: 1.79%
CN(C)C(=O)c1cc([N+](=O)[O-])cc2c1-c1c(cc([N+](=O)[O-])cc1[N+](=O)[O-])C2=O | inactive: -20.1%
CN(C(=O)Cc1ccc(Cl)c(Cl)c1)[C@H]1CC[C@@]2(CCCO2)C[C@@H]1N1CCCC1 | inactive: -4.89%
N#CCCN(C(=O)COC(=O)C(O)(c1ccccc1)c1ccccc1)c1ccc(F)cc1 | inactive: 2.28%
CCOP1(=S)c2c(C)nn(CCC#N)c2N=C(c2ccc(F)cc2)N1C (centres undefined) | inactive: -0.768%
CN(C(=O)Cc1ccccc1)[C@@H]1CC[C@]2(CCCO2)C[C@H]1N1CCCC1 | inactive: 29.1%
CCOP1(=S)c2c(C)nn(CCC#N)c2N=C(c2ccccc2F)N1C (centres undefined) | inactive: -0.986%
O=P(Nc1nccs1)(Oc1ccccc1)Oc1ccccc1 | inactive: -5.52%
O=C(O)COc1ccc([As](=O)(O)O)cc1[N+](=O)[O-] | inactive: -0.891%
Nc1ccccc1[As](=O)(O)c1ccccc1 | inactive: 0.83%
CCCOP(=S)(Nc1nc(N)cc(=O)[nH]1)OCCC | inactive: -3.75%

SMILES | activation
Nc1cccc2c([As](=O)(O)O)cccc12 | inactive: 1.38%
Cc1ccc(NCCc2c([N+](=O)[O-])cc([N+](=O)[O-])cc2[N+](=O)[O-])cc1 | inactive: 9.62%
CCOP(=O)(Nc1cccc2ccccc12)OCC | inactive: 0.608%
O=[As](O)(O)c1cccnc1 | inactive: -0.158%
COc1cc(C(=O)NCC2(N3CCOCC3)CCCCC2)cc(Cl)c1OC(C)C | inactive: -3.28%
CS(=O)(=O)c1ccc(Cl)c(NC(=O)COC(=O)C(O)(c2ccccc2)c2ccccc2)c1 | inactive: -2.78%
O=C(OC1CN2CCC1CC2)c1ccc(Cl)cc1 (centres undefined) | inactive: -0.386%
Cc1cccc(OCC(=O)OC2CN3CCC2CC3)c1 (centres undefined) | inactive: 0.386%
O=[As](O)(c1cccc(O)c1)c1cccc(O)c1 | inactive: -0.269%
COc1ccccc1CNC(=O)COC(=O)C(O)(c1ccccc1)c1ccccc1 | inactive: -6.79%
CN(C(=O)Cc1ccc(Cl)c(Cl)c1)[C@@H]1CCCC[C@H]1N1CCCC1 | inactive: -12%
CC(C)/C=N\N=C(\N)N[N+](=O)[O-] | inactive: -0.199%
CN(C(=O)Cc1ccc(Cl)c(Cl)c1)C1CCCC[C@@H]1N1CCCC1 (some centres undefined) | inactive: -2.13%
CCOP(=O)(Nc1ccc(C)cn1)OCC | inactive: 23.8%
CN(CCCl)Cc1cc(Cl)c(NC2=NCCN2)c(Cl)c1 | inactive: -0.819%
CCC1=CC2Cc3nc4ccc(Cl)cc4c(N)c3C(C1)C2 (centres undefined) | inactive: -5.46%
O=P1(Nc2ccccn2)COc2ccccc2OC1 | inactive: -2.56%
CCOP(=O)(NC(=NC(C)c1ccccc1)NC(C)c1ccccc1)OCC (centres undefined) | inactive: -2.11%
O=P1(N(CCCl)CCCl)NCCC(C(F)(F)F)O1 (centres undefined) | inactive: -3.85%
CC(C)(C)C(=O)NC(Sc1ncccn1)C(Cl)(Cl)Cl (centres undefined) | inactive: -0.783%
O=P1(Nc2ncccn2)COc2ccccc2OC1 | inactive: 7.61%
Cc1ccc(S(=O)(=O)N(CCCN)CCCc2c(C)nc(N)[nH]c2=O)cc1 | inactive: -0.671%
O=[As](O)(c1cccs1)c1cccs1 | inactive: 2.96%
NS(=O)(=O)c1cccc(NC(=O)COC(=O)C(O)(c2ccccc2)c2ccccc2)c1 | inactive: -2.5%
Nc1cccc([As](=O)(O)c2ccccc2)c1 | inactive: 2.17%

SMILES | activation
Cc1ccc(C(=O)OC2CN3CCC2CC3)cc1 (centres undefined) | inactive: -0.378%
CC1CCC(C(C)C)C(OP(=O)(Nc2ccccn2)c2ccccc2)C1 (centres undefined) | inactive: -4.94%
O=C(/C=C/c1ccccc1)OC1CN2CCC1CC2 (centres undefined) | inactive: 1.15%
CCCC1OP(=O)(Nc2ccccc2)OCC1CC (centres undefined) | inactive: -2.24%
CN(C)C1(CNC(=O)c2ccc(S(C)(=O)=O)cc2)CCCCC1 | inactive: -0.462%
O=[N+]([O-])c1ncn(CCn2cnc([N+](=O)[O-])n2)n1 | inactive: -6.21%
CC(=O)NC(SC(=S)N(C)C)C(Cl)(Cl)Cl (centres undefined) | inactive: 10.3%
O=[As](O)(c1ccccc1)c1ccc(O)cc1 | inactive: -1.22%
C/C(N)=N\P(=O)(OCc1ccccc1)OCc1ccccc1 | inactive: -1.05%
C(Cc1nn[nH]n1)Cc1nn[nH]n1 | inactive: -0.404%
Nc1ccc([As](=O)(O)c2ccc([N+](=O)[O-])cc2)cc1 | inactive: -1.65%
COc1ccc(N)c([N+](=O)[O-])c1[N+](=O)[O-] | inactive: -5.91%
Nc1ccc(CCCCOc2ccccc2)cc1 | inactive: 1.61%
CN(C)C1(CNC(=O)c2ccc(Cl)c(S(N)(=O)=O)c2)CCCCC1 | inactive: 0.2%
O=P(Nc1ccccn1)(c1ccc(Br)cc1)c1ccc(Br)cc1 | inactive: -4.85%
O=P(Nc1nc2ccccc2s1)(c1ccccc1)c1ccccc1 | inactive: -1.67%
C[C@H]1OP(=O)(Oc2ccccc2)[C@H](O)[C@H](O)[C@H]1N=[N+]=[N-] (some centres undefined) | inactive: 2.22%
CC(C)C(=O)NC(Sc1ccccc1)C(Cl)(Cl)Cl (centres undefined) | inactive: 4.42%
CC(=O)c1ccc(N2CC2c2ccncc2)cc1 (centres undefined) | inactive: 1.84%
N#C/C(=C\c1ccc(N(CCBr)CCBr)cc1)C(N)=O | inactive: 1.81%
COC(=O)C1(C)COP(=O)(NCc2ccccc2)OC1 (centres undefined) | inactive: 0.888%
Cc1ccccc1CN(C)C(=O)COC(=O)C(O)(c1ccccc1)c1ccccc1 | inactive: -2.14%
C[C@H]1OP(=O)(Oc2ccccc2)C[C@@H]2O[C@@H]21 (some centres undefined) | inactive: -1.77%
C[C@@H]1C=CCP(=O)(Oc2ccccc2)O1 (some centres undefined) | inactive: -0.738%
